Measured values taken from patent publication US6521594 (dated 2003).

Chains of the proteins cited; added tags and fusions are not shown. Residues count along the entry.
Platelet glycoprotein IIb/IIIa, UniProt P05106, 27-788, chain 2 of 2: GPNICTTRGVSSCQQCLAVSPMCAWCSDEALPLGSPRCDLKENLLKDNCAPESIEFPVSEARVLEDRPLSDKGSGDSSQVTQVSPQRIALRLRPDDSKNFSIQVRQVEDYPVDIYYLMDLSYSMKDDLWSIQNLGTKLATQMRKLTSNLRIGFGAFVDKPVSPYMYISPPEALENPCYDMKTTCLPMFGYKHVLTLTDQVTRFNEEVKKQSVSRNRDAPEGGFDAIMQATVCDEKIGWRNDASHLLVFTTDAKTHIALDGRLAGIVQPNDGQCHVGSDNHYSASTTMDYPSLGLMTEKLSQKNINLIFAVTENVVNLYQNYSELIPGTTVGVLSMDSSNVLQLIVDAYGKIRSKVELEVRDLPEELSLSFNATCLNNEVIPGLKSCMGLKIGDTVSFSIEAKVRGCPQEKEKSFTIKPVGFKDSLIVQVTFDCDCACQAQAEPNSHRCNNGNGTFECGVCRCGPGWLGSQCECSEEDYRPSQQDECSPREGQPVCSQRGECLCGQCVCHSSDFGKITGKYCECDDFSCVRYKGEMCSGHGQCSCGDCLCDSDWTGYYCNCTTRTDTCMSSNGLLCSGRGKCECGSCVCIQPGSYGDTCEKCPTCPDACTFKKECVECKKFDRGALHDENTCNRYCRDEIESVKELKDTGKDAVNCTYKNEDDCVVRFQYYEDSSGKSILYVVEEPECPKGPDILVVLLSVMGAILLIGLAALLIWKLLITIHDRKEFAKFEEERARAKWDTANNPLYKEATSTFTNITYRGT

Target: Platelet glycoprotein IIb/IIIa (human, UniProt P08514 32-1039; P05106 27-788)
Assay: ELISA

- IC50: 352 nM
B1: Ac-CNPRGD(Y-OMe)(Cit)C-NH2 (peptide)
peptide: CNPRGDXXC
modifications: N-terminal acetyl; O-Me-Tyr at 7; Cit at 8; C-terminal amide
